≈ marks a conversion by molar mass, not a printed value.
Key:
Type in all cases: functional
Details in all cases: read-out: MIC100
Staphylococcus aureus [1] = assay: Antibacterial activity against methicillin resistant Staphylococcus aureus CCARM 3090 after 18 to 20 hrs by broth microdilution assay
In short: (§1)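 Broth microdilution in 1% peptone: bacteria at 2 × 10⁶ CFU/mL mixed 1:1 with serial 2-fold peptide dilutions, 18-20 h at 37 °C; growth read as absorbance at 600 nm. MIC taken as lowest concentration giving 100% growth inhibition.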

Staphylococcus aureus [2] = assay: Antibacterial activity against methicillin resistant Staphylococcus aureus CCARM 3089 after 18 to 20 hrs by broth microdilution assay; in short: as §1
Staphylococcus aureus [3] = assay: Antimicrobial activity against Staphylococcus aureus KCTC 1621 incubated for 18 to 20 hrs by broth microdilution assay
In short: (§2)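 Broth microdilution in 1% peptone. Inoculum was 2 × 10⁶ CFU/mL mixed 1:1 with serial 2-fold peptide dilutions and incubated 18–20 h at 37 °C. Growth was read as absorbance at 600 nm; MIC is the lowest peptide concentration giving 100% growth inhibition.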

Pseudomonas aeruginosa [4] = assay: Antibacterial activity against multidrug-resistant Pseudomonas aeruginosa CCARM 2095 after 18 to 20 hrs by broth microdilution assay; in short: as §1
[5] = tested on: Staphylococcus epidermidis; assay: Antimicrobial activity against Staphylococcus epidermidis KCTC 1917 incubated for 18 to 20 hrs by broth microdilution assay; in short: as §2
Staphylococcus aureus [6] = assay: Antibacterial activity against methicillin resistant Staphylococcus aureus CCARM 3095 after 18 to 20 hrs by broth microdilution assay; in short: as §1
Pseudomonas aeruginosa [7] = assay: Antimicrobial activity against Pseudomonas aeruginosa KCTC 1637 incubated for 18 to 20 hrs by broth microdilution assay; in short: as §2
Pseudomonas aeruginosa [8] = assay: Antibacterial activity against multidrug-resistant Pseudomonas aeruginosa CCARM 2109 after 18 to 20 hrs by broth microdilution assay; in short: as §1
Escherichia coli = assay: Antimicrobial activity against Escherichia coli KCTC 1682 incubated for 18 to 20 hrs by broth microdilution assay; in short: as §2

How did the MIC (Staphylococcus aureus [1]) turn out when `CC[C@H](C)[C@H](NC(=O)CN)C(=O)NCC(=O)N[C@@H](C)C(=O)N[C@H](C(=O)N[C@@H](CC(C)C)C(=O)N[C@@H](CCCCN)C(=O)N[C@H](C(=O)N[C@@H](CC(C)C)C(=O)N[C@H](C(=O)N[C@H](C(=O)NCC(=O)N[C@@H](CC(C)C)C(=O)N1CCC[C@H]1C(=O)N[C@@H](C)C(=O)N[C@@H](CC(C)C)C(=O)N[C@H](C(=O)N[C@@H](CO)C(=O)N[C@@H](Cc1c[nH]c2ccccc12)C(=O)N[C@H](C(=O)N[C@@H](CCCCN)C(=O)N[C@@H](CCCNC(=N)N)C(=O)N[C@@H](CCCCN)C(=O)N[C@@H](CCCNC(=N)N)C(=O)N[C@@H](CCC(N)=O)C(=O)N[C@@H](CCC(N)=O)C(N)=O)[C@@H](C)CC)[C@@H](C)CC)[C@@H](C)O)[C@@H](C)O)C(C)C)C(C)C` [MELITTIN] was run?
The MIC was 16 µg/mL (≈ 5.62 µM).

What about the MIC (Staphylococcus aureus [2]) of the same compound?
Its MIC is 16 µg/mL (≈ 5.62 µM).

And the MIC (Staphylococcus aureus [3])?
The MIC was 16 µg/mL (≈ 5.62 µM).

And the MIC (Pseudomonas aeruginosa [4])?
Its MIC is 32 µg/mL (≈ 11.2 µM).

What about the MIC [5] of the same compound?
Its MIC is 32 µg/mL (≈ 11.2 µM).

And the MIC (Staphylococcus aureus [6])?
Its MIC is 16 µg/mL (≈ 5.62 µM).

And the MIC (Pseudomonas aeruginosa [7])?
The MIC was 32 µg/mL (≈ 11.2 µM).

And the MIC (Pseudomonas aeruginosa [8])?
The MIC was 32 µg/mL (≈ 11.2 µM).

What about the MIC (Escherichia coli) of the same compound?
The MIC was 16 µg/mL (≈ 5.62 µM).

Reference: ChEMBL document CHEMBL4000163, “Pyrazole derived ultra-short antimicrobial peptidomimetics with potent anti-biofilm activity” (Eur J Med Chem, 2017)
